From US20240180849A1, “IMMUNOFUNCTIONAL CARRIER, METHODS OF USES, AND COMPOSITION MATTERS AS AN ANTITUMOR IMMUNOTHERAPY” (priority 2021, published 2024)

Legend:
[1] = aqueous medium
CT26 tumor = settings: Cy7-labeled, intratumoral
[2] = In vivo toxicity (death) after intratumoral injection; settings: 2.74 mg/mouse

Polyethyleneimine-Lithocholic Acid Conjugate [2E′]
critical assembly concentration [1]: 2.6 µg/mL | disappearance from the injection site (CT26 tumor): disappeared from the injection site more slowly than PEI | mice that died in 48 h [2]: 0/7
